Experimental findings from paper PMC4631455, “FireProt: Energy- and Evolution-Based Computational Design of Thermostable Multiple-Point Mutants” (PLoS Computational Biology, 2015) are described below.

For series [1], the system named is CCCCCCI. Nature of the series: purified protein.
Series [2] addresses haloalkane dehalogenase DhaA (DhaAwt) (Rhodococcus rhodochrous, UniProt P0A3G2). The conditions noted are these: 37°C, 100 mM glycine buffer pH 8.6; Hill coefficient model with substrate inhibition; substrate inhibition constant.
[3] abbreviates: 57°C, 100 mM glycine buffer pH 8.6, Hill coefficient model, mutant DhaA115, 57.0 °C.

Molecule “haloalkane dehalogenase DhaA (DhaAwt) (Rhodococcus rhodochrous)” yielded a K0.5 in series [1] (37°C, 100 mM glycine buffer pH 8.6, Hill coefficient model with substrate inhibition) of 12.00 ± 1.14 µM. One may read the kcat as the maximal rate divided by the concentration of active sites. As to “haloalkane dehalogenase DhaA (DhaAwt) (Rhodococcus rhodochrous; A155P/A172I/C128F/C176F/C262L/D198W/D266F/E20S/F80R/T148L/V219W)”, in series [1] (setting [3]), the K0.5 was 5.00 ± 2.31 µM and the kcat was found to be 2.85 s⁻¹.

On to `CCCCCCI` [1-iodohexane], for which the “K si” value in series [2] was determined as 0.53 ± 0.01 mM.
